Reference: patent publication US6689805B2, “Pyrazole-3-one derivative, method for preparing the same, and pharmaceutical composition containing the same” (CJ Corp., priority 2002, dated 2004)

Target: T1, COX-2 (Mus musculus, UniProt Q05769)
T1 construct: endogenous in cells
T1 sequence (Q05769 18-604): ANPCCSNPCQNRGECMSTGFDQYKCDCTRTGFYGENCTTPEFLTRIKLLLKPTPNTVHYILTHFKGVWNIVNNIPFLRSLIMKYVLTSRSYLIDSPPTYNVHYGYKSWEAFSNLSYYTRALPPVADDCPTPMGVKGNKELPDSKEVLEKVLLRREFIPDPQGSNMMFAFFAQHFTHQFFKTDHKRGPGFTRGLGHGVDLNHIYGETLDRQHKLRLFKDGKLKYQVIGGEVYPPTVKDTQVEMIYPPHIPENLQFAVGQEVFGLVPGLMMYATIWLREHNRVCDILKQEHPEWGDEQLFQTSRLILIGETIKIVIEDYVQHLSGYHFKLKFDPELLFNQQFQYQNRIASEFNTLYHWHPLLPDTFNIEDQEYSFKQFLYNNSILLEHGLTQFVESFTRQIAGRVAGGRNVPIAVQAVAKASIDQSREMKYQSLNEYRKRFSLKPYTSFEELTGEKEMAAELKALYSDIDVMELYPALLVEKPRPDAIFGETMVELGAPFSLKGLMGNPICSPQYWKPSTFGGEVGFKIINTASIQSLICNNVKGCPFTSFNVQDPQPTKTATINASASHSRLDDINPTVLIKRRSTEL
Test: Assay for the COX-2 inhibitory activity using RAW 264.7 cell line (PGE2 inhibition)
Format: cell-based
Settings: RAW264.7, test compound 10 nM, RAW 264.7 cells, interferon + LPS induced, read-out: Cyclooxygenase (COX) Inhibition (%) COX-2 (10 nM)
Method: Each well was treated with 250 μM of aspirin and incubated at 37° C. for 2 hours. After the culture media were replaced with new culture media, the new culture media were treated with a test compound (10 nM) and incubated for 30 minutes. Then, each well was treated with interferon ? (100 units/ml) and lipopolysaccharide (LPS, 100 ng/ml) and incubated for 18 hours. The culture media were transferred to other test tubes. The concentration of PGE2 was quantified by means of the EIA kit (Cayman Chemicals).
The percentages of the COX inhibition were calculated according to the following equation:
% Inhibition=(concentration of PGE2 in test compound-untreated sample−concentration of PGE2 in test compound-treated sample) / (concentration of PGE2 in test compound-untreated sample)×100

Cc1onc(-c2ccccc2)c1-c1ccc(S(N)(=O)=O)cc1 [Reference (Valdecoxib), Valdecoxib, reference compound]
inhibition at 0.01 µM: 5.47%
